Laboratory results reported in patent US5385831A, “Method for producing a mammalian G protein coupled glutamate receptor” (priority 1993, dated 1995).

By UniProt entry, the sequences of proteins in these tests, tags left out. Residues count along the entry.
UniProt P23385, 19-1199: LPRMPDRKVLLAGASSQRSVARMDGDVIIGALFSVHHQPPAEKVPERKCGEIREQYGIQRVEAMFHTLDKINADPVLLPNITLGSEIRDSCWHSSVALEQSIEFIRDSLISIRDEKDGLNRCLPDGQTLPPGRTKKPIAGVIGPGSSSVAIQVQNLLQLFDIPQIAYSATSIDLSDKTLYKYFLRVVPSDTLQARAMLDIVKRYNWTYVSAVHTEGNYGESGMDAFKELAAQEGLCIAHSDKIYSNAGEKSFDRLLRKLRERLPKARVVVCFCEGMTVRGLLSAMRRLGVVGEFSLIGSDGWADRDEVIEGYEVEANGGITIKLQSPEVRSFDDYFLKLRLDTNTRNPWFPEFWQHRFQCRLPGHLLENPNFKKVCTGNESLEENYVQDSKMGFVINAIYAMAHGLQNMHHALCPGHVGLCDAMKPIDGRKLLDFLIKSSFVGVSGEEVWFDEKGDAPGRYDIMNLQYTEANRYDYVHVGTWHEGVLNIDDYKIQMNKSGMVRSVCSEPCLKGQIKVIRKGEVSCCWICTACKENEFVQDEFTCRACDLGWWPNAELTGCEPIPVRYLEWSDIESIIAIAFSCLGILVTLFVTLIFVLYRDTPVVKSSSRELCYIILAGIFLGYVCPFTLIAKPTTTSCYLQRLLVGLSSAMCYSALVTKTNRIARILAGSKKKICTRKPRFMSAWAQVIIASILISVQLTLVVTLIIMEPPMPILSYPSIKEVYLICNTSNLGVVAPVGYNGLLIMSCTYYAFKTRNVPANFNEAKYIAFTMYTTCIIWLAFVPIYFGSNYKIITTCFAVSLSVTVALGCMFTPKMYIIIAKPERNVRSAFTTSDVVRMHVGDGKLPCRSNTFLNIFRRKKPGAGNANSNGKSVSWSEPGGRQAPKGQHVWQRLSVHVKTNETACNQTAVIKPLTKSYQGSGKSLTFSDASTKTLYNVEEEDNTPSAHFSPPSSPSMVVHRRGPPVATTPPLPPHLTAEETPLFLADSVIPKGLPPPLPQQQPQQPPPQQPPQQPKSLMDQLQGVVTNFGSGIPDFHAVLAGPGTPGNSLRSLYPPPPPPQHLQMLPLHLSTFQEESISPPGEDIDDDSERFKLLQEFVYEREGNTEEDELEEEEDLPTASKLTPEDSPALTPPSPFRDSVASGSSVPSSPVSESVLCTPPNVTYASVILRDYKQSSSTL

Biological target: GluG R encoded by clone 45-A (Rattus norvegicus, UniProt P23385)
Experiment: cell-based

Molecule `N[C@@]1(C(=O)O)CC[C@@H](C(=O)O)C1` (relative stereo) [tACPD, trans 1-amino-cyclopentyl-1,3 dicarboxylic acid] has an EC50 of 376 µM.
